This passage reports EC50 results from patent publication US20210040194A1 (AstraZeneca / MedImmune, published 2021).

Protein sequences, listed by entry. Tags and fused reporters are not part of them. Chains listed by the source or under a name are the forms on record and can include a tag or linker. Residues count along the entry.
UniProt P15692, other isoform, or with tags, fused parts or gaps limits assumed: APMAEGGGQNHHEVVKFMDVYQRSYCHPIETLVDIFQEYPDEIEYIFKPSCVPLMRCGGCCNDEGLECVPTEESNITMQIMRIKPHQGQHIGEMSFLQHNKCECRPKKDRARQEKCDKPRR
UniProt P15692, 207-395 limits assumed: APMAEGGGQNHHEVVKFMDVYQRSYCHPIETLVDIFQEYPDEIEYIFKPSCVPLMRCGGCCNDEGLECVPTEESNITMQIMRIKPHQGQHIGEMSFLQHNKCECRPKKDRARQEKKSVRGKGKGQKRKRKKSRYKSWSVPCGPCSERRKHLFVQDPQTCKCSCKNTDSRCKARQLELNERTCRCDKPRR

The target in one test is T1, VEGF121 (human, UniProt P15692-9 27-147).
T1 construct: The method names only 'human VEGF' as coat
The test can be described thus: ELISA on plate-coated VEGF121, detection with goat anti-human IgG HRP, OD 450 nm.

The next test addresses human VEGF189 (human, UniProt P15692-2 27-215). The test can be described thus: ELISA, coated human VEGF189, anti-human IgG HRP detection. (In general: In an ELISA, binding on a coated surface is turned into a signal by an enzyme label.)

B1: B20-4.1 (antibody, V domains shown)
VH: EVQLVESGGGLVQPGGSLRLSCAASGFSINGSWIFWVRQAPGKGLEWVGAIWPFGGYTHYADSVKGRFTISADTSKNTAYLQMNSLRAEDTAVYYCARWGHSTSPWAMDYWGQGTLV
VL: DIQMTQSPSSLSASVGDRVTITCRASQVIRRSLAWYQQKPGKAPKLLIYAASNLASGVPSRFSGSGSGTDFTLTISSLQPEDFATYYCQQSNTSPLTFGQGTKVEIK
As to B1, a half-maximal response in the test with VEGF121 (EC50) required 0.053 nM.

B2: G6-31 (antibody, V domains shown)
VH: EVQLVESGGGLVQPGGSLRLSCAASGFTISDYWIHWVRQAPGKGLEWVAGITPAGGYTRYADSVKGRFTISADTSKNTAYLQMRSLRAEDTAVYYCARFVFFLPYAMDYWGQGTLVTVSS
VL: DIQMTQSPSSLSASVGDRVTITCRASQDVSTAVAWYQQKPGKAPKLLIYSASFLYSGVPSRFSGSGSGTDFTLTISSLQPEDAATYYCQQGYGAPFTFGQGTKVEIK
In the case of B2, the EC50 (as a rule, the midpoint of the concentration-response curve) with human VEGF189 stood at 0.0096 nM.
